According to patent US9164075B2, “Glutathione alkylester isotopologue and method for detecting reactive metabolite” (priority 2011, dated 2015):

Experimental: NADPH (20 mmol/L, […]) was added to the pre-incubated incubation mixture and a reaction (incubation) was started. The final incubation volume was 1 mL. A sample containing no object compound was used as a control.
After incubation at 37° C. for 60 minutes, a 50 mmol/L aqueous dithiothreitol solution (100 μL, 5 μmol) was added to the incubation mixture, and the resultant mixture was subjected to centrifugation at 10,000 g for 5 minutes. The centrifugation supernatant was added to a solid phase extraction column (OASIS HLB 1 cc, 30 mg) that was pre-washed with 1 mL of methanol and activated with 1 mL of purified water. The column was washed with 1 mL of water and 1 mL of 5% methanol solution, and a reaction product was eluted with 1 mL of methanol. The solvent was removed by evaporation under nitrogen flow, and the residue was dissolved in 150 μL of acetonitrile:water (2:8) to prepare an analysis sample.
An AQCUITY UPLC system (WATERS) was used for separation by chromatography. Aliquots (10 μL) of the prepared analysis sample was injected into an AQCUITY UPLC BEH C18 column (2.1×100 mm, 1.7 μm). The separation by chromatography was performed under gradient conditions shown in the following table at a mobile phase flow rate of 0.5 mL/minute.
The LC column eluate obtained in step 2-1 was introduced into an LTQ XL ion trap mass spectrometer. […]

- NUMBER OF IDENTIFIED REACTIVE METABOLITES (EXAMPLES): two
Structure (SMILES): O=C(O)Cc1ccccc1Nc1c(Cl)cccc1Cl [diclofenac]
